## scFv variants of Ab-14 (light chain) against a SARS-CoV-2 spike peptide

Target: peptide PDVDLGDISGINAS, taken from heptad repeat 2 (HR2) of SARS-CoV-2 spike.

Parent scFv Ab-14: VH joined to VL by three GGGGS repeats. Changes lie in the light chain CDRs alone.
VH: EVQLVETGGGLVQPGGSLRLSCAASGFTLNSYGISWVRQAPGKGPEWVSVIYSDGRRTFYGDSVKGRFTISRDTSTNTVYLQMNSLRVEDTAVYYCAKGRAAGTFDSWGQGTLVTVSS
VL: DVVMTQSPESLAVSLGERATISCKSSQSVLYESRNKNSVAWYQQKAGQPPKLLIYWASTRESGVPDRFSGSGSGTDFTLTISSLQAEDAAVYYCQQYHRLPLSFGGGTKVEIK

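Designed CDR sequences, proposed from the first random library and measured here. Group labels follow the data file (Ctrl: baseline library sampled from a position-specific scoring matrix, with some repeated check sequences; En: ensemble of fine-tuned language models; GP: Gaussian process model; HC: hill climbing; Gen: genetic algorithm; Gibbs: Gibbs sampling; a sequence that several methods proposed may carry one label only). In AlphaSeq, yeast of one mating type display the scFv and yeast of the other type display the target. Pairs that bind mate more often; barcode pairs of the diploids are counted by sequencing. Each replicate has its own calibration line, from reference interactions of the BCL2 family. Mating was done six times.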

Sequences are complete VL domains. Variants here have at most six changes. Kd is apparent (estimated from mating counts) and averaged on the log scale over replicates with a signal. Smaller is tighter. "nd" marks a missing value. The strain was present, yet no cells mated with the target were sequenced in any replicate, which points to weak or no binding. Of ten entries with the parent sequence, four were seen in most replicates (averages 2.2 nM to 240 nM), three in one and three in none, so single entries are noisy. The authors' rule: three or more of the six replicates give a measured affinity, fewer mean a poor binder. Empty control strains, which show no peptide, gave a signal in 4% of pairings with all light chain designs; the median was 430 nM and 95% of these signals were weaker than 38 nM. No background was subtracted. Values of this round are not directly comparable with the first-round values of the same sequences.

Variant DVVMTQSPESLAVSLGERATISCKLSQSVPYESRNKNSVAWYQQKAGQPPKLLIYNASTRESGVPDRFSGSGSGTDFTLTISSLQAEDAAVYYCQQYHRLPLEFGGGTKVEIK [GP_Gen] showed 1.5 nM (6 of 6 replicates). Variant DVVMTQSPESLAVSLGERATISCKLQQSHLYESRNKNSVAWYQQKAGQPPKLLIYEASTRESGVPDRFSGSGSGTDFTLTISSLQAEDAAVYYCQQYHRLPLSFGGGTKVEIK [GP_Gen] showed 420 pM (6 of 6 replicates). Variant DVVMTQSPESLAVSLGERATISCKVLQSVVYEGRNKNSVAWYQQKAGQPPKLLIYQASTREDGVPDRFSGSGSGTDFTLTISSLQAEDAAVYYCQQYHRLPLSFGGGTKVEIK [GP_HC] gave 2.8 nM (6 of 6 replicates). Variant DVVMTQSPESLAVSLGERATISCKLSQSELYESRMKNSVAWYQQKAGQPPKLLIYNASTRESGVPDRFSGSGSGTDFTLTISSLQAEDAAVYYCQQYHRLPLSFGGGTKVEIK [GP_Gen] showed 920 pM (6 of 6 replicates). Variant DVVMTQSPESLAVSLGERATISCKLPQSQLYESRNKNQVAWYQQKAGQPPKLLIYSASTREMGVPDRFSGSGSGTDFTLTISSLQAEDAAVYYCQQYHRLPLSFGGGTKVEIK [GP_Gibbs] showed 850 pM (6 of 6 replicates). Variant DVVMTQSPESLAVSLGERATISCKLSQSVLMESRNKNSVAWYQQKAGQPPKLLIYRASTRESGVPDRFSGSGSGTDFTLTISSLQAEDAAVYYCQQYHRLPLSFGGGTKVEIK [Ctrl] showed 3.6 nM (6 of 6 replicates). Variant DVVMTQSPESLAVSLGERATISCKSSYSVLYESRNKNSVAWYQQKAGQPPKLLIYHASTRESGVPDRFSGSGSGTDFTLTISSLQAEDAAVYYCQQYHRLPLSFGGGTKVEIK [Ctrl] gave 1.3 nM (6 of 6 replicates). For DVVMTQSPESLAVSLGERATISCESSQSVLYVSRNKNSVAWYQQKAGQPPKLLIYDASTRESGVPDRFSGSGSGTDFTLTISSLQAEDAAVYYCQQYHRLRLSFGGGTKVEIK [Ctrl], the assay gave nd (0 of 6 replicates). Variant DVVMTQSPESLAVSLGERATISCKSSQVVLQESTNKNSVAWYQQKAGQPPKLLIYSASTRESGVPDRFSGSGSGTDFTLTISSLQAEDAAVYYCQQYHRLPLSFGGGTKVEIK [Ctrl] showed 1.9 nM (6 of 6 replicates).

Variant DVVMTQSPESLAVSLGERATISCKFQQSDGYESRNKNSVAWYQQKAGQPPKLLIYEASTRSSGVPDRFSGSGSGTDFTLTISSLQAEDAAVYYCQQYHRLPLSFGGGTKVEIK [GP_Gibbs] gave 1.0 nM (6 of 6 replicates). For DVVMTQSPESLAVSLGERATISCKSGQGVDYESRNKNSVAWYQQKAGQPPKLLIYGASLRESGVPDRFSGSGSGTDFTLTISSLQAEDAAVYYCQQYHRLPLSFGGGTKVEIK [GP_HC], the assay gave 730 pM (6 of 6 replicates). Variant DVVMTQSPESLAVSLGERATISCKLEQSTLYESRNKNSVAWYQQKAGQPPKLLIYWASTRESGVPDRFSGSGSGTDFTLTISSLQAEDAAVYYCQQYHRLPLSFGGGTKVEIK [GP_HC] showed 2.6 nM (6 of 6 replicates). With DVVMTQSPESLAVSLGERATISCKSLQSWGYESRNKNSVAWYQQKAGQPPKLLIYHASTREQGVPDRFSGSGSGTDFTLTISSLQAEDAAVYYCQQYHRLPLSFGGGTKVEIK [GP_HC] the result was 7.4 nM (6 of 6 replicates). Variant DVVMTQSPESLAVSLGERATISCKAEGSELYESRNKNSVAWYQQKAGQPPKLLIYNASMRESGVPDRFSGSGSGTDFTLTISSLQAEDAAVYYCQQYHRLPLSFGGGTKVEIK [GP_Gibbs] showed 1.0 nM (6 of 6 replicates). For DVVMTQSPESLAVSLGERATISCKSSQSVLYESRNKNSEAWYQQKAGQPPKLLIYWASNRESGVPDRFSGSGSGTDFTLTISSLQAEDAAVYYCQQYHRLPLSFGGGTKVEIK [Ctrl], the assay gave 38 nM (1 of 6 replicates). Variant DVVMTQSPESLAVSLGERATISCKSSQSQLYESRNFNSVAWYQQKAGQPPKLLIYNASTREDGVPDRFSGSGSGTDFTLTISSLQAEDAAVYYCQQYHRLPLSFGGGTKVEIK [GP_HC] showed 1.1 nM (6 of 6 replicates). Variant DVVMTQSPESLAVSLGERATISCKVQQSQPYESRNKNSVAWYQQKAGQPPKLLIYNASTRESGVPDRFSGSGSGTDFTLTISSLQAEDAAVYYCQQYHRLPLSFGGGTKVEIK [GP_Gen] showed 470 pM (6 of 6 replicates). Variant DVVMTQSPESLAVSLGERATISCKYSQEVLEESRNKNSVAWYQQKAGQPPKLLIYNASTREEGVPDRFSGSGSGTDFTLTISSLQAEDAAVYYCQQYHRLPLSFGGGTKVEIK [GP_Gibbs] gave 890 pM (6 of 6 replicates).

Variant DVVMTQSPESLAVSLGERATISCKSSPSVLYESINKNSVAWYQQKAGQPPKLLIYNASTRMSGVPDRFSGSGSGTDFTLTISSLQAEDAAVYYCQQYHRLPLSFGGGTKVEIK [GP_HC] gave 1.3 nM (6 of 6 replicates). With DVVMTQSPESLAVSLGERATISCKSSGSWLYESRNFWSVAWYQQKAGQPPKLLIYGASTRESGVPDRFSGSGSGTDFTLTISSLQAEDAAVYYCQQYHRLPLSFGGGTKVEIK [GP_HC] the result was 8.2 nM (6 of 6 replicates). With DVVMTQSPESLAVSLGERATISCKSSQSVDYESRNKNSVAWYQQKAGQPPKLLIYWASTRESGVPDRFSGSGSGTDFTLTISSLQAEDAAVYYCQCYFRLPLSFGGGTKVEIK [Ctrl] the result was nd (0 of 6 replicates). For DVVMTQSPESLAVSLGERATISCKSSISYLYESRNKNSVAWYQQKAGQPPKLLIYEASTRESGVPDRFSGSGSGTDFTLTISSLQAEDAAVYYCQQYHRLPLSFGGGTKVEIK [En_HC], the assay gave 2.1 nM (6 of 6 replicates).

Again, the first 2 entries without any signal:

With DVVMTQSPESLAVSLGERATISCESSQSVLYVSRNKNSVAWYQQKAGQPPKLLIYDASTRESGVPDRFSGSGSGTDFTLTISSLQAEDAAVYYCQQYHRLRLSFGGGTKVEIK [Ctrl] the result was nd (0 of 6 replicates).
With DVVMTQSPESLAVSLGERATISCKSSQSVDYESRNKNSVAWYQQKAGQPPKLLIYWASTRESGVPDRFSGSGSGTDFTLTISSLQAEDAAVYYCQCYFRLPLSFGGGTKVEIK [Ctrl] the result was nd (0 of 6 replicates).

The measurements come from Li et al. 2023 (doi:10.1038/s41467-023-39022-2) through the FLAb antibody collection.